Test results published in patent US7732457B2, “Amino-pyridines as inhibitors of β-secretase” (Wyeth LLC, priority 2005, dated 2010).

Protein sequences, listed by entry. Tags and fused reporters are not part of them. Residues count along the entry.
UniProt P56817, 46-501: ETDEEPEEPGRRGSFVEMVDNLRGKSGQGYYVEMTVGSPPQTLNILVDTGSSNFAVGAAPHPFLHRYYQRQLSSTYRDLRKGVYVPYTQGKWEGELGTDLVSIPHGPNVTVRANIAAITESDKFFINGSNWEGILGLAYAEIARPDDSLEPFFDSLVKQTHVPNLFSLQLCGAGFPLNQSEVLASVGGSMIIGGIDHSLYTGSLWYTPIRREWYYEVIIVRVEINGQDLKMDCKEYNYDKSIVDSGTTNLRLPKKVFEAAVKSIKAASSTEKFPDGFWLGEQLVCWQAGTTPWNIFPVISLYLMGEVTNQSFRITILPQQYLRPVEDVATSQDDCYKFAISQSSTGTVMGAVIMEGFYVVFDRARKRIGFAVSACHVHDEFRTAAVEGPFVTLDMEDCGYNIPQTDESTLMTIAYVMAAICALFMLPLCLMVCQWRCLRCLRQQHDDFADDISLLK

Biological target: human BACE1 (Homo sapiens, UniProt P56817)
Assay: BACE-1 fluorescent kinetic assay (cleavage of peptide substrate WABC-6)
Assay type: biochemical
Details: 10 nM enzyme, 25 μM substrate WABC-6, Na-Acetate pH 4.5, room temperature
Description: Evaluation of BACE-1 Binding Affinity of Test Compounds
Fluorescent Kinetic Assay
Dilution and mixing steps: total reaction volume: 100 μL
100 μM substrate dilution in 1×PBS was prepared, and
Fluorescence Readings: Readings at λex 320 nm and λem 420 nm are taken every 40 sec for 30 min at room temperature and the linear slope for substrate cleavage rate (vi) determined.

Q: How did the IC50 turn out when “2-{2-Amino-6-[2-(2-chloro-phenyl)-5-(4-pentyloxy-phenyl)-pyrrol-1-ylmethyl]-pyridin-3-yloxy}-ethanol hydrochloride [Example 46]” was run?
A: Its IC50 is 110 to 1000 nM.
